From patent US12285437B2 (The Research Foundation for The State University of new York, priority 2019, dated 2025)

Assays:
[1] = tested on: NIH:OVCAR3 human ovarian cancer cells
[2] = tested on: ES-2 human ovarian cancer cells; experiment: pH-dependent anti-proliferation assay (MTS; alamar Blue for FIG. 7I); conditions: for Cell Viability Average (Avg): FIG. 7A, ES-2, 6 hr
From the text: pH-dependent anti-proliferation assays with cells.
NaOH to adjust the pH to 9.9.

[3] = tested on: PC-3 human prostate cancer cells; conditions: FIG. 9B, PC3, 2.5 hr, 10 μM
[4] = 25° C.

Mol. % of DMA 8 ([4]; pH 6.0, 0.1 hr): 67 Mol. % | Mol. % of DMI 7 formed ([4]; pH 6.0, 0.1 hr): 12 Mol. % | Mol. % of Decomposition Products ([4]; pH 6.0, 0.1 hr): 5 Mol. % | Mol. % of Dox Released ([4]; pH 6.0, 0.1 hr): 16 Mol. % | Mol. % of DMA 8 ([4]; pH 6.0, 2 hr): 28 Mol. % | Mol. % of DMI 7 formed ([4]; pH 6.0, 2 hr): 10 Mol. % | Mol. % of Decomposition Products ([4]; pH 6.0, 2 hr): 5 Mol. % | Mol. % of Dox Released ([4]; pH 6.0, 2 hr): 57 Mol. % | Mol. % of DMA 8 ([4]; pH 6.0, 5 hr): 12 Mol. % | Mol. % of DMI 7 formed ([4]; pH 6.0, 5 hr): 10 Mol. % | Mol. % of Decomposition Products ([4]; pH 6.0, 5 hr): 10 Mol. % | Mol. % of Dox Released ([4]; pH 6.0, 5 hr): 68 Mol. % | Mol. % of DMA 8 ([4]; pH 6.0, 24 hr): 0 Mol. % | Mol. % of DMI 7 formed ([4]; pH 6.0, 24 hr): 10 Mol. % | Mol. % of Decomposition Products ([4]; pH 6.0, 24 hr): 10 Mol. % | Mol. % of Dox Released ([4]; pH 6.0, 24 hr): 80 Mol. % | Mol. % of DMA 8 ([4]; pH 6.3, 0.1 hr): 74 Mol. % | Mol. % of DMI 7 formed ([4]; pH 6.3, 0.1 hr): 9 Mol. % | Mol. % of Decomposition Products ([4]; pH 6.3, 0.1 hr): 8 Mol. % | Mol. % of Dox Released ([4]; pH 6.3, 0.1 hr): 9 Mol. % | Mol. % of DMA 8 ([4]; pH 6.3, 3.5 hr): 36 Mol. % | Mol. % of DMI 7 formed ([4]; pH 6.3, 3.5 hr): 9 Mol. % | Mol. % of Decomposition Products ([4]; pH 6.3, 3.5 hr): 8 Mol. % | Mol. % of Dox Released ([4]; pH 6.3, 3.5 hr): 47 Mol. % | Mol. % of DMA 8 ([4]; pH 6.3, 6 hr): 23 Mol. % | Mol. % of DMI 7 formed ([4]; pH 6.3, 6 hr): 8 Mol. % | Mol. % of Decomposition Products ([4]; pH 6.3, 6 hr): 10 Mol. % | Mol. % of Dox Released ([4]; pH 6.3, 6 hr): 59 Mol. % | Mol. % of DMA 8 ([4]; pH 6.3, 24 hr): 4 Mol. % | Mol. % of DMI 7 formed ([4]; pH 6.3, 24 hr): 16 Mol. % | Mol. % of Decomposition Products ([4]; pH 6.3, 24 hr): 12 Mol. % | Mol. % of Dox Released ([4]; pH 6.3, 24 hr): 68 Mol. % | Mol. % of DMA 8 ([4]; pH 6.5, 1 hr): 69 Mol. % | Mol. % of DMI 7 formed ([4]; pH 6.5, 1 hr): 7 Mol. % | Mol. % of Decomposition Products ([4]; pH 6.5, 1 hr): 14 Mol. % | Mol. % of Dox Released ([4]; pH 6.5, 1 hr): 10 Mol. % | Mol. % of DMA 8 ([4]; pH 6.5, 6 hr): 32 Mol. % | Mol. % of DMI 7 formed ([4]; pH 6.5, 6 hr): 11 Mol. % | Mol. % of Decomposition Products ([4]; pH 6.5, 6 hr): 14 Mol. % | Mol. % of Dox Released ([4]; pH 6.5, 6 hr): 43 Mol. %
Substance: Doxorubicin Disubstituted Maleamic Acid Glutathione Conjugate [Dox-DMA-GSH 8]
Cell Viability Avg ([1]; FIG. 7C, OVCAR3, 2 hr, 4 μM, pH 6.3-6.4): 64% | Cell Viability Avg ([1]; FIG. 7C, OVCAR3, 2 hr, 4 μM, pH 7.4-7.6): 57% | Cell Viability Avg ([1]; FIG. 7C, OVCAR3, 2 hr, 6 μM, pH 6.3-6.4): 18% | Cell Viability Avg ([1]; FIG. 7C, OVCAR3, 2 hr, 6 μM, pH 7.4-7.6): 38% | Cell Viability Avg ([1]; FIG. 7G, OVCAR3, 2 hr, 6 μM, pH 6.2-6.4): 15% | Cell Viability Avg ([1]; FIG. 7G, OVCAR3, 2 hr, 6 μM, pH 6.4-6.5): 16% | Cell Viability Avg ([1]; FIG. 7G, OVCAR3, 2 hr, 6 μM, pH 6.6-6.7): 34% | Cell Viability Avg ([1]; FIG. 7G, OVCAR3, 2 hr, 6 μM, pH 6.8-6.9): 46% | Cell Viability Avg ([1]; FIG. 7G, OVCAR3, 2 hr, 6 μM, pH 7.1-7.3): 55% | Cell Viability Avg ([1]; FIG. 7G, OVCAR3, 2 hr, 6 μM, pH 7.2-7.5): 52% | Cell Viability Avg ([1]; FIG. 10A, OVCAR3, 6 hr, 2 μM, pH 6.5-6.7): 76% | Cell Viability Avg ([1]; FIG. 10A, OVCAR3, 6 hr, 2 μM, pH 7.3-7.6): 79% | Cell Viability Avg ([1]; FIG. 10A, OVCAR3, 6 hr, 4 μM, pH 6.5-6.7): 32% | Cell Viability Avg ([1]; FIG. 10A, OVCAR3, 6 hr, 4 μM, pH 7.3-7.6): 49% | less cytotoxic than the free drug (3 μM) ([1]; OVCAR3, 2-3 h, 6-8 μM prodrug, pHe 7.5-7.6): 2-4 × | Cell Viability Average (Avg) ([2]; 0.5 μM, pH 6.6-6.8): 64% | Cell Viability Average (Avg) ([2]; 0.5 μM, pH 7.2-7.5): 61% | Cell Viability Average (Avg) ([2]; 1 μM, pH 6.6-6.8): 22% | Cell Viability Average (Avg) ([2]; 1 μM, pH 7.2-7.5): 45% | Cell Viability Avg ([2]; FIG. 7E, ES2, 2.5 hr, 2 μM, pH 6.3-6.4): 43% | Cell Viability Avg ([2]; FIG. 7E, ES2, 2.5 hr, 2 μM, pH 6.5): 50% | Cell Viability Avg ([2]; FIG. 7E, ES2, 2.5 hr, 2 μM, pH 6.7-6.8): 51% | Cell Viability Avg ([2]; FIG. 7E, ES2, 2.5 hr, 2 μM, pH 6.8-6.9): 63% | Cell Viability Avg ([2]; FIG. 7E, ES2, 2.5 hr, 2 μM, pH 7.2): 69% | Cell Viability Avg ([2]; FIG. 7E, ES2, 2.5 hr, 2 μM, pH 7.2-7.4): 80% | Cell Viability Avg ([2]; FIG. 7I, ES2, FBS(50%), 2 μM, pH 6.5-6.9): 50% | Cell Viability Avg ([2]; FIG. 7I, ES2, FBS(50%), 2 μM, pH 7.2-7.7): 89% | Cell Viability Avg ([2]; FIG. 7I, ES2, FBS(50%), 4 μM, pH 6.5-6.9): 19% | Cell Viability Avg ([2]; FIG. 7I, ES2, FBS(50%), 4 μM, pH 7.2-7.7): 46% | Cell Viability Avg ([2]; FIG. 7I, ES2, FBS(50%), 6 μM, pH 6.5-6.9): 8% | Cell Viability Avg ([2]; FIG. 7I, ES2, FBS(50%), 6 μM, pH 7.2-7.7): 21% | Cell Viability Avg ([2]; FIG. 7I, ES2, no FBS, 2 μM, pH 6.5-6.9): 58% | Cell Viability Avg ([2]; FIG. 7I, ES2, no FBS, 2 μM, pH 7.2-7.7): 86% | Cell Viability Avg ([2]; FIG. 7I, ES2, no FBS, 4 μM, pH 6.5-6.9): 21% | Cell Viability Avg ([2]; FIG. 7I, ES2, no FBS, 4 μM, pH 7.2-7.7): 32% | Cell Viability Avg ([2]; FIG. 7I, ES2, no FBS, 6 μM, pH 6.5-6.9): 7% | Cell Viability Avg ([2]; FIG. 7I, ES2, no FBS, 6 μM, pH 7.2-7.7): 17% | Cell Viability Avg ([2]; FIG. 10B, ES2, 12 hr, 0.3 μM, pH 6.6-6.7): 100% | Cell Viability Avg ([2]; FIG. 10B, ES2, 12 hr, 0.3 μM, pH 7.4-7.6): 73% | Cell Viability Avg ([2]; FIG. 10B, ES2, 12 hr, 1 μM, pH 6.6-6.7): 50% | Cell Viability Avg ([2]; FIG. 10B, ES2, 12 hr, 1 μM, pH 7.4-7.6): 23% | Cell Viability Avg ([3]; pH 6.3-6.4): 56% | Cell Viability Avg ([3]; pH 7.5-7.6): 70%

Like-named read-outs stand apart in the source and are kept apart here.
